# Laboratory results: EP4831160A1, “TRISUBSTITUTED QUINAZOLINE DERIVATIVE, ACID ADDITION SALT THEREOF, AND PHARMACEUTICAL COMPOSITION AND USE THEREOF” (dated 2026)
# Amino acid sequences for entries named in this document (tags omitted). Chains listed by the source or under a name are the forms on record and can include a tag or linker. Residues count along the entry.
# UniProt P51451, whole entry: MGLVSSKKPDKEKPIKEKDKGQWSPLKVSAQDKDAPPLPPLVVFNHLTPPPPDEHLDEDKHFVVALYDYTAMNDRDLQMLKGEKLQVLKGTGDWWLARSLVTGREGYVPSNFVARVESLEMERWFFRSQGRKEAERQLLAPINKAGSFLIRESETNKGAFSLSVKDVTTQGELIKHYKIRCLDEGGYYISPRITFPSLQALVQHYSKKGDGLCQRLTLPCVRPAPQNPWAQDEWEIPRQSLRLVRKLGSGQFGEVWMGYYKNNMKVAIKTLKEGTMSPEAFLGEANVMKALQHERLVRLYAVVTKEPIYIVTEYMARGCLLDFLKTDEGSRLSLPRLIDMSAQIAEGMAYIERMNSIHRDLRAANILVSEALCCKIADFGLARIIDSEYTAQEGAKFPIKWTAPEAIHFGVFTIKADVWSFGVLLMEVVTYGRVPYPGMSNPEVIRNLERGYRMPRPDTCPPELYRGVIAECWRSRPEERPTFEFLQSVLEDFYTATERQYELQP
# UniProt P00533, with tags, fused parts or gaps INS770NPG limits assumed: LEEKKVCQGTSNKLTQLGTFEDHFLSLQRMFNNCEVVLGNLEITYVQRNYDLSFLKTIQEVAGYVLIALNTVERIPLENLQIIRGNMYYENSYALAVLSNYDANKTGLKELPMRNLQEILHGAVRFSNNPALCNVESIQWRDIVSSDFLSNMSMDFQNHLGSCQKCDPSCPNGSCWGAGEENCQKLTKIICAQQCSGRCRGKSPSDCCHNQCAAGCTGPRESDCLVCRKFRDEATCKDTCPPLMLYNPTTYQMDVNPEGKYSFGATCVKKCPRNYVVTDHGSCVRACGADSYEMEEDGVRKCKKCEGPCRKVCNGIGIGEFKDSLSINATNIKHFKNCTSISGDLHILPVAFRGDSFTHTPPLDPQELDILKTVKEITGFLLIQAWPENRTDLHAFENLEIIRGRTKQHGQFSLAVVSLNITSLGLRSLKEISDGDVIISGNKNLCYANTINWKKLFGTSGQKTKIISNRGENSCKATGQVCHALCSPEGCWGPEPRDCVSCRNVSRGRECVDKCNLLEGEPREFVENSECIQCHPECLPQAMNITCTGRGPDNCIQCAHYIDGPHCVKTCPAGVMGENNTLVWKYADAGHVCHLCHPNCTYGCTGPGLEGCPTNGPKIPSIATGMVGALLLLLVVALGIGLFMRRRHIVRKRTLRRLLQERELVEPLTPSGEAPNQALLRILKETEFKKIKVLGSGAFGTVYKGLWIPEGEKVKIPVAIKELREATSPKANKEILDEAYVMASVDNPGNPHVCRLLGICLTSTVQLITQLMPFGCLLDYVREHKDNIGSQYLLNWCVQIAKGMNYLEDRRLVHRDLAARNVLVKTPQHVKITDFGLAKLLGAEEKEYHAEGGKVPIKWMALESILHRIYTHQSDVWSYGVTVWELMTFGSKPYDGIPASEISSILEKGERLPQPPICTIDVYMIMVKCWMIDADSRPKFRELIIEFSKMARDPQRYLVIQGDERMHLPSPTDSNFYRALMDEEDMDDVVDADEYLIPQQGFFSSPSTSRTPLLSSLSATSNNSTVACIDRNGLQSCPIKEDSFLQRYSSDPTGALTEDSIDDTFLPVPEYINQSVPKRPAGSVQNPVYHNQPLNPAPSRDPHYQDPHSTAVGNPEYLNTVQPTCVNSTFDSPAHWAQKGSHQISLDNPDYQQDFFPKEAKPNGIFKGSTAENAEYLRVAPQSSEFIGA
# UniProt P00533, 25-1210 T790M limits assumed: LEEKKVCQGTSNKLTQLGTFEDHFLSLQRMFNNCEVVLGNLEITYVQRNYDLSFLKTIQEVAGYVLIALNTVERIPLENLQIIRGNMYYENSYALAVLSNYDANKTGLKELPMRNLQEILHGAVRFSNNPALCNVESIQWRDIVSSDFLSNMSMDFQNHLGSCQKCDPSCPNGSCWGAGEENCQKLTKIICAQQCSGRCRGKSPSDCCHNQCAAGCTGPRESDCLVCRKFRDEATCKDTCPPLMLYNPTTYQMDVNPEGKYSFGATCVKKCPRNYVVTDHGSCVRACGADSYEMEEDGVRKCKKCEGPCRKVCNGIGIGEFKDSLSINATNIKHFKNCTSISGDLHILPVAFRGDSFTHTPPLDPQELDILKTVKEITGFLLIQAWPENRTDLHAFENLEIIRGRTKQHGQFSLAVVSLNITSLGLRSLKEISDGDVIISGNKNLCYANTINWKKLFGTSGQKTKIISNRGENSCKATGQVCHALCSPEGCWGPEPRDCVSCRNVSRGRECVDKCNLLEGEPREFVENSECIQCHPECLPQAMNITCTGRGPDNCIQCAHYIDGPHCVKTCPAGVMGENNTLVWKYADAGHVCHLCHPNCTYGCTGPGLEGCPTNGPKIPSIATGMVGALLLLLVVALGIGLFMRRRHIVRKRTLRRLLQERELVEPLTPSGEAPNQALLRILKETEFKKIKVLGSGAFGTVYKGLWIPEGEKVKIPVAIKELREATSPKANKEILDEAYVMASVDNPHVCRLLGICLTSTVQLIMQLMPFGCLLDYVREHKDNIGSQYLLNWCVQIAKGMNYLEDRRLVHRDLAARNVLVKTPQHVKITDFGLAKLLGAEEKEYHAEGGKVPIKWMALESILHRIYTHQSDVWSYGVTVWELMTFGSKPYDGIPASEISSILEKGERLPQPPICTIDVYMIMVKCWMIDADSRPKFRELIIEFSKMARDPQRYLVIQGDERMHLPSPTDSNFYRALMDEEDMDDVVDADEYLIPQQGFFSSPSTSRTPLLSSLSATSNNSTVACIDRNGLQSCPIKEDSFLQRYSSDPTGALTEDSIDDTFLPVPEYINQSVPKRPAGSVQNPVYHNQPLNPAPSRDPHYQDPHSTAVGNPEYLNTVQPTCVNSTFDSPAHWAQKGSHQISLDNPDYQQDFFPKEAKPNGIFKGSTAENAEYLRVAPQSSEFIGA
# UniProt P04626, 23-1255 limits assumed: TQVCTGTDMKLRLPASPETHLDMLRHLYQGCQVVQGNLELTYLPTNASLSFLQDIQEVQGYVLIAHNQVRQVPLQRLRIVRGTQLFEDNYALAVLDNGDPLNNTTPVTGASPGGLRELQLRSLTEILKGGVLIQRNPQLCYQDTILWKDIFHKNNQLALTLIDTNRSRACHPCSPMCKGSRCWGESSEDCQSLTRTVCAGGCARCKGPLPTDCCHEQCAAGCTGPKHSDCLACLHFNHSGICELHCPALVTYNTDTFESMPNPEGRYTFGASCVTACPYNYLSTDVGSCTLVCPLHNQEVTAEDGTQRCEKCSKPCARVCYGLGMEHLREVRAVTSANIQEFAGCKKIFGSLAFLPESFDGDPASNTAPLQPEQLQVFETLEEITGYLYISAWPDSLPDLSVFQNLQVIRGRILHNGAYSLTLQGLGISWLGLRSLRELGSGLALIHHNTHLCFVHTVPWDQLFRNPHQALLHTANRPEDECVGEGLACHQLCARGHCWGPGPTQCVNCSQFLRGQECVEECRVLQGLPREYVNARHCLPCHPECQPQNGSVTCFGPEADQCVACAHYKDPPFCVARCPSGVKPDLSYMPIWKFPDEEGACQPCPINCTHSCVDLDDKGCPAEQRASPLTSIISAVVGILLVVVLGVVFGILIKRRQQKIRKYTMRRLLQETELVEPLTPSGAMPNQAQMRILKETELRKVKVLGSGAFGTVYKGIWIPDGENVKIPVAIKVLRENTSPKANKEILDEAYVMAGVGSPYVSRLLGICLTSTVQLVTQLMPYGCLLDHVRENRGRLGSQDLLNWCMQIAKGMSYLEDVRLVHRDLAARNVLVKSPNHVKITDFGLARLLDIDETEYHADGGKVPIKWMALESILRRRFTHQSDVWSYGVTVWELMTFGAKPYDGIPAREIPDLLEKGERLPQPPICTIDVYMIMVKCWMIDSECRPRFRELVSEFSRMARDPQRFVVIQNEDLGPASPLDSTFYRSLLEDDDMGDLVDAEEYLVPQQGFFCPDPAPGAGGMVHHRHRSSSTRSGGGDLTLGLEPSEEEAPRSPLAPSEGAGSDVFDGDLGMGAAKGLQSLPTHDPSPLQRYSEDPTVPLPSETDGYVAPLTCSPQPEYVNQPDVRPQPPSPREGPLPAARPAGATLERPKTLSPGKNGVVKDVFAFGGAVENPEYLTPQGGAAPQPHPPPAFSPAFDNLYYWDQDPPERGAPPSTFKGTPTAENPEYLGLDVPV
# UniProt P04626, with tags, fused parts or gaps INS777CG limits assumed: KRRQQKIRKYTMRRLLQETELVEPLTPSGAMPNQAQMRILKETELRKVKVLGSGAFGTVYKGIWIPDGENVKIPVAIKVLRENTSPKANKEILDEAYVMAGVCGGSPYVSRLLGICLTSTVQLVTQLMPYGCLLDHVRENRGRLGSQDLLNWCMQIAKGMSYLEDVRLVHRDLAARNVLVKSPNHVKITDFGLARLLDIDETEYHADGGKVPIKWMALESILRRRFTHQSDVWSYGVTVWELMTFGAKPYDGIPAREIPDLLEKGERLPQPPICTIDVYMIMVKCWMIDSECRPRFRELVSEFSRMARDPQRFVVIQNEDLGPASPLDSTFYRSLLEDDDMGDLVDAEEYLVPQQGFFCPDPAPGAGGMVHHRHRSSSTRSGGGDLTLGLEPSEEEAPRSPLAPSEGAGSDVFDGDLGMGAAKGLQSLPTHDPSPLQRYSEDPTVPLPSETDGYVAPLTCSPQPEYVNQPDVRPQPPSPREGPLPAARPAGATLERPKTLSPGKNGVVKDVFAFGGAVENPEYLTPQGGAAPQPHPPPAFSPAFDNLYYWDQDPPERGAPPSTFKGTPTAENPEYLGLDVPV
# Experiments:
# [1] = tested on: brain metastases; experiment: Clinical: intracranial lesions of patients with brain metastases after treatment
# [2] = tested on: HER2-positive breast cancer; experiment: Human clinical trial, efficacy in subjects with HER2-positive breast cancer; details: for BOR: Best Overall Response
# [3] = tested on: HER2-positive colorectal cancer; experiment: Human clinical trial, efficacy in subjects with HER2-positive colorectal cancer; details: for BOR: Best Overall Response
# [4] = tested on: HER2-positive other tumor types; experiment: Human clinical trial, efficacy in subjects with HER2-positive other tumor types; details: for BOR: Best Overall Response
# [5] = Solid stability study by HPLC (purity by area normalization); details: after 21 days at room temperature
# [6] = Systematic characterization of different salt crystal forms (comparison of properties); details: sealed centrifuge tube, kept at RT; for solid stability: impurity RRT= 0.19 / solid stability: impurity RRT= 0.36: ND: not detected
# [7] = tested on: BT-474 human breast cancer cell line; experiment: In vivo efficacy study, subcutaneous BT-474 xenograft, p.o. QD×21; details: for mice that achieved complete tumor regression: at the end of treatment; for tumor growth inhibition (TGI): oral, once daily for 21 consecutive days, BT-474 xenograft
# [8] = tested on: SK-BR-3 cell; experiment: Cell proliferation inhibition experiment; details: SK-BR-3 cell proliferation inhibition
# [9] = target: B-cell lymphocyte kinase (BLK) (Homo sapiens, UniProt P51451); experiment: Homogeneous time-resolved fluorescence (HTRF) kinase assay; details: read-out: enzymatic activity (IC90)
# [10] = target: EGFR (D770_N771insNPG) (Homo sapiens, UniProt P00533, INS770NPG); experiment: as above
# [11] = target: EGFR (T790M) (Homo sapiens, UniProt P00533, T790M); experiment: as above; details: read-out: enzymatic activity (IC90)
# [12] = target: HER2 (Homo sapiens, UniProt P04626); experiment: as above
# [13] = target: HER2 (V777-G778insCG) (Homo sapiens, UniProt P04626, INS777CG); experiment: as above; details: read-out: enzymatic activity (IC90)
# [14] = tested on: HCC1419 cell; experiment: Cell proliferation inhibition experiment (similar cell experimental conditions, CellTiter-Glo)
# [15] = tested on: cells (e.g. SW620 cells); experiment: Cell biology experiment: CellTiter-Glo luminescence, 3 days incubation, cell line panel of the results table
# [16] = Pharmacokinetics in rats, intravenous and oral administration
# [17] = Blood-brain barrier assay / tissue distribution after oral administration, LC-MS/MS; details: 3 mg/kg oral (dosed as maleate hydrate crystal form A)
# [18] = Subject No. 01003, submandibular cancer, 150 mg QD
# [19] = Subject No. 01021, salivary gland cancer, 200 mg QD
# [20] = read-out: enzymatic activity (IC90)
compound,measurement,setting,value
CCOc1cc2ncnc(Nc3ccc(Oc4ccc(F)cc4)cc3)c2cc1NC(=O)/C=C/CN(C)C.O.O=C(O)/C=C\C(=O)O,Intracranial Lesion Reduction%,"[1]; Test Subject No. 01021, salivary gland cancer, 200 mg QD",-60%
same,Intracranial Lesion Reduction%,"[1]; Test Subject No. 03005, breast cancer, 150 mg QD",-41.2%
same,Percentage Reduction in target Lesions,"[2]; Subject No. 01013, 200 mg QD",-46.5%
same,BOR,"[2]; Subject No. 01013, 200 mg QD",PR
same,Percentage Reduction in target Lesions,"[2]; Subject No. 01014, 200 mg QD",-47.6%
same,BOR,"[2]; Subject No. 01014, 200 mg QD",PR
same,Percentage Reduction in target Lesions,"[2]; Subject No. 01023, 200 mg QD",-53.3%
same,BOR,"[2]; Subject No. 01023, 200 mg QD",PR
same,Percentage Reduction in target Lesions,"[2]; Subject No. 02004, 200 mg QD",-32.7%
same,BOR,"[2]; Subject No. 02004, 200 mg QD",PR
same,Percentage Reduction in target Lesions,"[2]; Subject No. 02008, 200 mg QD",-69.8%
same,BOR,"[2]; Subject No. 02008, 200 mg QD",PR
same,Percentage Reduction in target Lesions,"[2]; Subject No. 02010, 200 mg QD",-100%
same,BOR,"[2]; Subject No. 02010, 200 mg QD",CR
same,Percentage Reduction in target Lesions,"[2]; Subject No. 02013, 200 mg QD",-44.2%
same,BOR,"[2]; Subject No. 02013, 200 mg QD",PR
same,Percentage Reduction in target Lesions,"[2]; Subject No. 02014, 150 mg QD",-65.2%
same,BOR,"[2]; Subject No. 02014, 150 mg QD",PR
same,Percentage Reduction in target Lesions,"[2]; Subject No. 03014, 150 mg QD",-45.8%
same,BOR,"[2]; Subject No. 03014, 150 mg QD",PR
same,Percentage Reduction in target Lesions,"[3]; Subject No. 01007, 250 mg QD",-26.3%
same,BOR,"[3]; Subject No. 01007, 250 mg QD",SD
same,Percentage Reduction in target Lesions,"[3]; Subject No. 01018, 150 mg QD",-34.1%
same,BOR,"[3]; Subject No. 01018, 150 mg QD",PR
same,Percentage Reduction in target Lesions,"[3]; Subject No. 03012, 200 mg QD",-21.8%
same,BOR,"[3]; Subject No. 03012, 200 mg QD",SD
same,Percentage Reduction in target Lesions,[4]; [18],-59.3%
same,BOR,[4]; [18],PR
same,Percentage Reduction in target Lesions,[4]; [19],-34.5%
same,BOR,[4]; [19],PR
same,solid stability,[5],better stability
same,solid stability: impurity RRT= 0.29,[6]; at day 0,0.07%
same,solid stability: impurity RRT= 0.78,[6]; at day 0,0.02%
same,solid stability: impurity RRT= 0.89,[6]; at day 0,0.06%
same,solid stability: purity,[6]; at day 0,99.61%
same,solid stability: impurity RRT= 0.29,[6]; at day 24,0.08%
same,solid stability: impurity RRT= 0.78,[6]; at day 24,0.02%
same,solid stability: impurity RRT= 0.89,[6]; at day 24,0.07%
same,solid stability: purity,[6]; at day 24,99.59%
same,mice that achieved complete tumor regression,[7]; 10 mg/kg,all
same,tumor growth inhibition (TGI),[7]; 10 mg/kg,100%
same,mice that achieved complete tumor regression,[7]; 20 mg/kg,all
same,tumor growth inhibition (TGI),[7]; 20 mg/kg,100%
same,mice that achieved complete tumor regression,[7]; 40 mg/kg,all
same,tumor growth inhibition (TGI),[7]; 40 mg/kg,100%
COc1cc2ncnc(Nc3ccc(Oc4ccc(Cl)cc4)cc3)c2cc1NC(=O)/C=C/CN(C)C,IC50,[8],221 nM
CCOc1cc2ncnc(Nc3ccc(Oc4ccc(F)cc4)cc3)c2cc1NC(=O)/C=C/CN(C)C.O=C(O)/C=C\C(=O)O [maleate crystal form C],solid stability,[5],obvious degradation
same,solid stability: impurity RRT= 0.19,[6]; at day 0,0.08%
same,solid stability: impurity RRT= 0.36,"[6]; at day 0, maleate",0.01%
same,solid stability: impurity RRT= 0.29,"[6]; at day 0, maleate",0.06%
same,solid stability: impurity RRT= 0.78,"[6]; at day 0, maleate",0.08%
same,solid stability: impurity RRT= 0.89,"[6]; at day 0, maleate",0.07%
same,solid stability: purity,"[6]; at day 0, maleate",99.43%
same,solid stability: impurity RRT= 0.19,[6]; at day 24,0.16%
same,solid stability: impurity RRT= 0.36,"[6]; at day 24, maleate",0.03%
same,solid stability: impurity RRT= 0.29,"[6]; at day 24, maleate",0.06%
same,solid stability: impurity RRT= 0.78,"[6]; at day 24, maleate",0.08%
same,solid stability: impurity RRT= 0.89,"[6]; at day 24, maleate",0.07%
same,solid stability: purity,"[6]; at day 24, maleate",98.79%
CCOc1cc2ncnc(Nc3ccc(Oc4ccc(F)cc4)cc3)c2cc1NC(=O)/C=C/CN(C)C,IC90,[9],145 nM
same,IC50,[10]; enzymatic activity,5.99 nM
same,IC90,[10]; [20],172 nM
same,IC90,[11],45.4 nM
same,IC50,[12]; enzymatic activity,1.3 nM
same,IC90,[12]; [20],8.03 nM
same,IC90,[13],152 nM
same,EC50,[14],0.016 µg/mL
same,IC50,[15]; BT-474 (HER2+) cell line,148 nM
same,IC50,[15]; HCC1954 (HER2+) cell line,132 nM
same,IC50,[15]; SK-BR-3 (HER2+) cell line,11.1 nM
same,Rat IV 1 mpk AUC0-t,"[16]; rat, IV, 1 mpk",561 (h*ng/mL)
same,F%,"[16]; rat, bioavailability, oral 10 mpk vs IV 1 mpk",79.50%
same,Rat Oral 10 mpk AUC0-t,"[16]; rat, oral, 10 mpk",4460 (h*ng/mL)
same,Cmax,"[16]; rat, route not printed in the row, stands below the Rat Oral 10 mpk row",304 ng/mL
same,bioavailability,"[16]; rats, oral vs intravenous",79.5%
same,exposure ratio in the brain and plasma,[17]; female rats,79.7%
same,exposure ratio in the brain and plasma,[17]; male rats,43.6%
